Source: PubChem BioAssay AID686940 (The Scripps Research Institute Molecular Screening Center, 2013)
The entries are a selection whose mix differs from that of the whole data set. Some tests of the compounds listed are not included; inactive here does not mean inactive elsewhere. Calls of active or inactive are those of the source.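 The calls were made as follows: active = inhibition above a per-plate cutoff, mean inhibition of test wells between control levels plus 3 SD (cut at about 38% in these data); inactive = the rest.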

Protein sequences, listed by entry. Tags and fused reporters are not part of them.
UniProt P24468, whole entry: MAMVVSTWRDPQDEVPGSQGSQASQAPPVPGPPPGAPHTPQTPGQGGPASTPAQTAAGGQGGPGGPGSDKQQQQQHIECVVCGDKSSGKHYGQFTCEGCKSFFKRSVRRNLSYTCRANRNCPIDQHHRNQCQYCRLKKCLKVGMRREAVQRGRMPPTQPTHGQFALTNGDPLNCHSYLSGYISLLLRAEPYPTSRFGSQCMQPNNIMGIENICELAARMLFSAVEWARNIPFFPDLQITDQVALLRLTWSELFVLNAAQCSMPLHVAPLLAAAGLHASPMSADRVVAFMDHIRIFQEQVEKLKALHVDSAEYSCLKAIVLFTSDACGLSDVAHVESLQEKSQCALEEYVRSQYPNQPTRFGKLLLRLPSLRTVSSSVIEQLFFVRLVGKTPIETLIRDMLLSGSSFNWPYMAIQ

Molecular target: COUP transcription factor 2 (Homo sapiens) (UniProt P24468)
Assay: COUP-TFII reporter suppression in human cells – cell-based, luciferase reporter, HEK293T, luminescence, primary screen (AID 686940);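 also: cells cotransfected with COUP-TFII expression vector driving the NGFI-A reporter; 0% = median of COUP-TF2 test wells and 100% = reporter-only cells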
Details: HEK293T NGFI-A luciferase reporter, at 8.6 µM, active compounds read high

| SMILES | inhibition |
| --- | --- |
| O=C(OC1CN2CCC1CC2)C(CO)(c1ccccc1)c1ccccc1 (stereo unspecified) | inactive: 1.83% |
| CN(C)c1cccc(C(=O)NCC2(N(C)C)CCCCC2)c1 | inactive: -13.5% |
| O=C(OCCN1CCCC1)C(O)(c1ccccc1)c1ccccc1 | inactive: 15.6% |
| CC(C)Oc1ccc(C(=O)NCC2(N(C)C)CCCCC2)cc1 | inactive: 6.01% |
| COc1ccc(Br)c(C(=O)NCC2(N3CCCCC3)CCCCC2)c1 | inactive: -0.36% |
| C=C(C)C#CC(O)(C(=O)OC1CCN(C)CC1)c1ccccc1 (stereo unspecified) | inactive: 6.49% |
| COc1cc(C(=O)NCC2(N(C)C)CCCCC2)c([N+](=O)[O-])cc1OC | inactive: -7.48% |
| CN(C)C1(CNC(=O)c2ccc(Br)cc2)CCCCC1 | inactive: 12.2% |
| O=C(NCC1(N2CCCCC2)CCCCC1)c1cccc(Cl)c1 | inactive: 10.8% |
| COc1ccc(Cl)cc1C(=O)NCC1(N(C)C)CCCCC1 | inactive: -35.2% |
| COc1cccc(C(=O)NCC2(N3CCCCC3)CCCCC2)c1 | inactive: 1.55% |
| CN(C)c1ccc(C(=O)NCC2(N(C)C)CCCCC2)cc1 | inactive: -0.51% |
| CN(C)C1CCCC1OC(=O)C(O)(c1ccccc1)c1ccccc1 (stereo unspecified) | inactive: 6.76% |
| Cc1ccccc1C(=O)NCC1(N2CCCCC2)CCCCC1 | inactive: 19.3% |
| O=C(NCC1(N2CCCCC2)CCCCC1)c1cccc(Br)c1 | inactive: -15.5% |
| CCN1CCCC(OC(=O)C2(O)c3ccccc3C=Cc3ccccc32)C1 (stereo unspecified) | inactive: 5.15% |
| Cc1cc(C(=O)NCC2(N3CCCCC3)CCCCC2)ccc1[N+](=O)[O-] | inactive: -2.93% |
| COc1ccc(C(=O)NCC2(N(C)C)CCCCC2)cc1 | inactive: 12.6% |
| O=C(NCC1(N2CCCCC2)CCCCC1)c1cc(F)c(F)cc1Cl | inactive: -3.62% |
| C=CCN1CCN(CCOC(=O)C(O)(c2ccccc2)c2ccccc2)CC1 | inactive: -5.19% |
| CN1[C@@H]2CC[C@H]1CC(OC(=O)C(O)(c1ccccc1)c1ccccc1)C2 (stereo partly specified) | inactive: 3.03% |
| O=C(NCC1(N2CCCCC2)CCCCC1)c1cc([N+](=O)[O-])ccc1Cl | inactive: -0.03% |
| Cc1ccc(C(=O)NCC2(N3CCCCC3)CCCCC2)cc1 | inactive: 1.24% |
| CC(C)N1C(=O)CC2(CCN(CCOC(=O)C(O)(c3ccccc3)c3ccccc3)CC2)C1=O | inactive: -7.99% |
| COc1cc(SC)ccc1C(=O)NCC1(N(C)C)CCCCC1 | inactive: -6.01% |
| CCN(CC)CC(C)C(C)OC(=O)C(O)(c1ccccc1)c1ccccc1 (stereo unspecified) | inactive: 12.8% |
